Experimental data published in PubChem BioAssay AID488922 (Johns Hopkins Ion Channel Center, 2010).
The entries are a selection whose mix differs from that of the whole data set. The source made the active and inactive calls.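 How the source made its calls: active means ratio B-score over 3 SD below the library mean, with starting fluorescence within 5 SD of its mean; inactive means the rest, inconclusive results apart.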

By UniProt entry, the sequences of proteins in these tests, tags left out.
UniProt Q9NPC2, whole entry: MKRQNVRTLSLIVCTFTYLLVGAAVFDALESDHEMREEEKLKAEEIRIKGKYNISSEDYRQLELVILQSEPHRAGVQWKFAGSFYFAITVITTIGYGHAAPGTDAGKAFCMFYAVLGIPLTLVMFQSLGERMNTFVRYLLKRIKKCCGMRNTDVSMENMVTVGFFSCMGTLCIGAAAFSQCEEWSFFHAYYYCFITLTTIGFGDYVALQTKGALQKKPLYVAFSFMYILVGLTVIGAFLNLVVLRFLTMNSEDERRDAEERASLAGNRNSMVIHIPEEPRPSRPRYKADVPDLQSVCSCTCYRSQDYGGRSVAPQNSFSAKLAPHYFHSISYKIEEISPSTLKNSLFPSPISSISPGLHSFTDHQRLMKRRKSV

Molecular target: Potassium channel subfamily K member 9 (Homo sapiens) (UniProt Q9NPC2)
Experiment: blockers of human TASK-3 (KCNK9) channel – HEK293 cells, thallium flux, primary screen (AID 488922);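 on B-score: negative B-score means less thallium flux so channel inhibition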
Settings: HEK293 KCNK9, FluxOR thallium flux fluorescence, at 10 µM; hits give low values

Row | Structure (SMILES) | outcome | B-score
1 | N#Cc1ccc(C(=O)NCC2(N3CCCCC3)CCCCC2)cc1 | inactive | 
2 | CC(C)(C)OC(=O)N1CCC(N(C(=O)c2ccccc2)c2ccc(Cl)cc2)CC1 |  | active: -23.1
3 | CN(C)C1(CNC(=O)c2cccc(C#N)c2)CCCCC1 | inactive | 
4 | c1ccc(CN2CCC(Nc3ccccc3)CC2)cc1 | inactive | 
5 | CCCN1CCC(Nc2cc(OC)cc(OC)c2)CC1 | inactive | 
6 | COc1ccc(C(=O)NCC2(N3CCOCC3)CCCCC2)cc1OC | inactive | 
7 | O=C(OC1CN2CCC1CC2)C1c2ccccc2C=Cc2ccccc21 (centres undefined) | inactive | 
8 | CCc1cc(C(=O)NCC2(N3CCCCC3)CCCCC2)sc1C | inactive | 
9 | CCOC(=O)N1CCC(Nc2ccc(C)cc2)CC1 | inactive | 
10 | N/C(=N\O)c1c(N)no[n+]1[O-] | inactive | 
11 | CC(C)(C)OC(=O)N1CCC(Nc2ccccc2)CC1 | inactive | 
12 | O=C(O)C1(Nc2ccccc2)CCN(Cc2ccccc2)CC1 | inactive | 
13 | CCCOc1ccc(C(=O)NCC2(N(C)C)CCCCC2)cc1 | inactive | 
14 | CCOc1ncccc1C(=O)NCC1(N2CCOCC2)CCCCC1 | inactive | 
15 | CN1CCC(Nc2ccc(F)c(Cl)c2)CC1 | inactive | 
16 | CN1CCC(Nc2ccc(Cl)cc2)CC1 | inactive | 
17 | CCCOc1ccc(C)cc1CN(CCCl)CCCl | inactive | 
18 | COc1cc(OC)cc(C(=O)NCC2(N3CCOCC3)CCCCC2)c1 | inactive | 
19 | COc1cccc(C(=O)N(c2cc(C)cc(C)c2)C2CCN(C(=O)OC(C)(C)C)CC2)c1 |  | active: -15.8
20 | CCC(CO)(C(=O)OC1CN2CCC1CC2)c1ccccc1 (centres undefined) | inactive | 

Row | Structure (SMILES) | outcome | B-score
21 | Cc1ccc(C(=O)NCC2(N3CCCCC3)CCCCC2)o1 | inactive | 
22 | Fc1ccccc1NC1CCN(Cc2ccccc2)CC1 | inactive | 
23 | COc1cc(OC)cc(C(=O)NCC2(N3CCCCC3)CCCCC2)c1 | inactive | 
24 | CN(C)c1ccc(C(=O)NCC2(N3CCCCC3)CCCCC2)cc1 | inactive | 
25 | CCN1CCC(Nc2cccc(F)c2)CC1 | inactive | 
26 | O=C(NCC1(N2CCCCC2)CCCCC1)c1ccc(F)cc1 | inactive | 
27 | COc1ccc(NC2CCN(CCc3ccccc3)CC2)c(OC)c1 | inactive | 
28 | CCOC(=O)N1CCC(Nc2ccc(F)cc2)CC1 | inactive | 
29 | CCOc1ccc(C)cc1CN(CCCl)CCCl | inactive | 
30 | COc1cc(C(=O)NCC2(N(C)C)CCCCC2)ccc1OC(F)F | inactive | 
31 | CCOC(=O)N1CCC(Nc2cccc(C)c2)CC1 | inactive | 
32 | Cc1ccc(OCC(C)C)c(CN(CCCl)CCCl)c1 | inactive | 
33 | CSc1ccccc1C(=O)NCC1(N2CCCCC2)CCCCC1 | inactive | 
34 | COc1ccc(C(=O)NCC2(N3CCCCC3)CCCCC2)cc1 | inactive | 
35 | COc1ccc(C(=O)NCC2(N3CCCCC3)CCCCC2)c(OC)c1OC | inactive | 
36 | CC(C)(C)OC(=O)N1CCC(N(C(=O)c2ccccc2)c2ccc(F)cc2)CC1 |  | active: -18.1
37 | O=C(NCC1(N2CCCCC2)CCCCC1)c1ccc(=O)[nH]c1 | inactive | 
38 | O=C(NCC1(N2CCCCC2)CCCCC1)c1cccs1 | inactive | 
39 | O=C(OC1CN2CCC1CC2)C1c2ccccc2Oc2ccccc21 (centres undefined) | inactive | 
40 | N#CC1(Nc2ccccc2)CCN(Cc2ccccc2)CC1 | inactive | 

Row | Structure (SMILES) | outcome | B-score
41 | CCOC(=O)N1CCC(Nc2ccc(OC)cc2)CC1 | inactive | 
42 | O=C(NCC1(N2CCCCC2)CCCCC1)c1ccc(Cl)nc1 | inactive | 
43 | Cc1cc(C)cc(N(C(=O)c2ccccc2)C2CCN(C(=O)OC(C)(C)C)CC2)c1 |  | active: -12.4
44 | O=C(NCC1(N2CCOCC2)CCCCC1)c1cc2ccccc2o1 | inactive | 
45 | COc1cc(OC)c(C(=O)NCC2(N(C)C)CCCCC2)cc1OC | inactive | 
46 | CC(C)c1ccc(NC2CCN(C(=O)OC(C)(C)C)CC2)cc1 | inactive | 
47 | COc1ccc(CN(CCCl)CCCl)cc1Cl | inactive | 
48 | CN(C)c1cccc(C(=O)NCC2(N3CCCCC3)CCCCC2)c1 | inactive | 
49 | CCCOc1ccc(C(=O)NCC2(N(C)C)CCCCC2)cc1OC | inactive | 
50 | CN1CCC(Nc2cccc(F)c2)CC1 | inactive | 
51 | CCN1CCC(Nc2ccc(Cl)cc2)CC1 | inactive | 
52 | N#CC1(Nc2ccccc2)CCN(CCc2ccccc2)CC1 | inactive | 
53 | O=C(NCC1(N2CCCCC2)CCCCC1)c1cccc([N+](=O)[O-])c1 | inactive | 
54 | O=C(NCC1(N2CCCCC2)CCCCC1)c1ccc(OC(F)F)cc1 | inactive | 
55 | COc1cc(C(=O)NCC2(N3CCCCC3)CCCCC2)ccc1OC(F)F | inactive | 
56 | O=C(NCC1(N2CCOCC2)CCCCC1)c1cc(=O)[nH]c2ccccc12 | inactive | 
57 | CN1CCN(CCOC(=O)C(O)(c2ccccc2)c2ccccc2)CC1 | inactive | 
58 | COc1ccc(NC2CCN(C(=O)OC(C)(C)C)CC2)cc1 | inactive | 
59 | O=C(NCC1(N2CCCCC2)CCCCC1)c1cccc(C(F)(F)F)c1 | inactive | 
